Read-outs that look alike come from different tables or passages of the source.

By UniProt entry, the sequences of proteins in these tests, tags left out. Where a name states a change or a piece, a line headed by the entry shows the natural chain unless it says otherwise.
UniProt P41146: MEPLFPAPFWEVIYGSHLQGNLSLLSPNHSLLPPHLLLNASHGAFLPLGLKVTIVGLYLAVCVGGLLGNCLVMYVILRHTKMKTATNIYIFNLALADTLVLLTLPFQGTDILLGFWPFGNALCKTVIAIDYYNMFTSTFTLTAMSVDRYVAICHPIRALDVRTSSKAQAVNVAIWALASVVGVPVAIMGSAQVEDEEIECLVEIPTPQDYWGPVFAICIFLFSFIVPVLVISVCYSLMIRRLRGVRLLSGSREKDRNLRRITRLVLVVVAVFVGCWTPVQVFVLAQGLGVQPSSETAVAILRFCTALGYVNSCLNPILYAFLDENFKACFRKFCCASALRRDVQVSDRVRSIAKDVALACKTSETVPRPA
UniProt P35372, whole entry, looked up: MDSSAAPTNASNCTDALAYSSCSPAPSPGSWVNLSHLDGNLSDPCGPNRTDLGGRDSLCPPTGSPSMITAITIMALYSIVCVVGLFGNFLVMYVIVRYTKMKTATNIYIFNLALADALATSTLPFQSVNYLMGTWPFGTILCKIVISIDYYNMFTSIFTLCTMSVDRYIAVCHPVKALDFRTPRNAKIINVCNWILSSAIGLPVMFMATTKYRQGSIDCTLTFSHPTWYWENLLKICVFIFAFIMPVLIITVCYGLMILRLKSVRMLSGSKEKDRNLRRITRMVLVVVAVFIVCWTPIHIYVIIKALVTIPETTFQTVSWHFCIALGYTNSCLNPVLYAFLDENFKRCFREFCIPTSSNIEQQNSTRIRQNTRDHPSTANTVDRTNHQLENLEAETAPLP

One test addresses ORL1 receptor (Homo sapiens, UniProt P41146). As to conditions: for ORL1 % Inhibition @ 1 μM / % inhibition (ORL1) [1 μM]: test concentration 1 μM.
The next test addresses human μ opiate receptor (Homo sapiens, UniProt P35372). Put plainly: μ opiate receptor binding assay with [3H]-naloxone, membrane preparation of CHO-K1 cells (WGA-SPA beads). The settings on record: for MOP % Inhibition @1 μM / % inhibition (μ) [1 μM]: test concentration 1 μM.
[1] abbreviates: read-out: Ki (ORL1) mean [μm], mean.
[2] abbreviates: read-out: Ki (μ) mean [μm], mean.

What is called Ki is the equilibrium dissociation constant of an inhibitor or competing ligand from its target. `CN(C)C1(c2ccccc2)CCC2(CCN(C(=O)CCCc3ccncc3)C2)CC1` (centres unmarked): the Ki came to 6.1 nM on ORL1 receptor (read-out: ORL1 Ki) and 10.1 nM at human μ opiate receptor (read-out: MOP Ki). Besides, the “ORL1 % Inhibition @ 1 μM” value on ORL1 receptor is reported as 76%. The “MOP % Inhibition @1 μM” value at human μ opiate receptor is reported as 100%.

`CN(C)[C@]1(c2ccccc2)CC[C@]2(CC1)CC(=O)N(c1cccc3nsnc13)C2`: the figures for the Ki at ORL1 receptor (read-out: ORL1 Ki) and on human μ opiate receptor (read-out: MOP Ki) were 2.1 nM and 6.2 nM, respectively.

`CCCCNC(=O)CN1CC2(CCC(c3ccccc3)(N(C)C)CC2)CC1=O` (centres unmarked): the Ki on ORL1 receptor (read-out: ORL1 Ki) amounted to 2.3 nM; on human μ opiate receptor (read-out: MOP Ki) it was 1.4 nM. Besides, the “ORL1 % Inhibition @ 1 μM” value on ORL1 receptor came out at 93%. The “MOP % Inhibition @1 μM” value on human μ opiate receptor came out at 101%.

With `CN(C)C1(c2ccccc2)CCC2(CCN(C(=O)CCc3cccnc3)C2)CC1` (centres unmarked), the Ki at ORL1 receptor (read-out: ORL1 Ki) is 14.5 nM; on human μ opiate receptor (read-out: MOP Ki), 35.5 nM. For the same compound, on ORL1 receptor, the “ORL1 % Inhibition @ 1 μM” value was determined as 83%. For the same compound, on human μ opiate receptor, the “MOP % Inhibition @1 μM” value is 99%.

For the compound `CN(C)C1(Cc2ccccc2)CCC2(CCN(Cc3ccncc3)C2)CC1` (centres unmarked), the values for the Ki at ORL1 receptor (setting [1]) and at human μ opiate receptor (setting [2]) were 310 nM and 52 nM, respectively. Moreover, the “% inhibition (ORL1) [1 μM]” value on ORL1 receptor is on record as 32%. Further, the “% inhibition (μ) [1 μM]” value on human μ opiate receptor turned out to be 67.5%.

On to `CN(C)C1(c2ccccc2)CCC2(CC1)CC(=O)N(CC(C)(C)C(=O)N1CCNC(=O)C1)C2` (centres unmarked), for which the Ki on ORL1 receptor (read-out: ORL1 Ki) was 255 nM. In addition, the “ORL1 % Inhibition @ 1 μM” value at ORL1 receptor worked out at 41%. Also, at human μ opiate receptor, the “MOP % Inhibition @1 μM” value was found to be 82%.

Regarding “Cis-N-[3-(8-Dimethylamino-3-oxo-8-phenyl-2-azaspiro[4.5]decan-2-yl)-propyl]-5-methyl-oxazole-4-carboxylic acid amide”, the Ki came out at 125 nM at ORL1 receptor (read-out: ORL1 Ki) and 64 nM at human μ opiate receptor (read-out: MOP Ki). Besides, the “ORL1 % Inhibition @ 1 μM” value at ORL1 receptor was 59%. In addition, the “MOP % Inhibition @1 μM” value at human μ opiate receptor was 95%.

As to `CN(C)[C@]1(c2ccccc2)CC[C@]2(CC1)CC(=O)N(c1ccc(Cl)cc1C#N)C2`, the Ki at ORL1 receptor (read-out: ORL1 Ki) amounted to 1.9 nM; on human μ opiate receptor (read-out: MOP Ki), 1.3 nM.

On to `CN(C)C1(C2CCCC2)CCC2(CC1)CC(=O)N(Cc1ccccc1)C2` (centres unmarked), for which the Ki on ORL1 receptor (setting [1]) worked out at 34.7 nM; on human μ opiate receptor (setting [2]), 5.95 nM. For the same compound, the “% inhibition (ORL1) [1 μM]” value on ORL1 receptor is listed as 75.5%. The “% inhibition (μ) [1 μM]” value on human μ opiate receptor is reported as 98.5%.

On to `COC(=O)C(C)(C)CCN1C[C@]2(CC[C@@](c3ccccc3)(N(C)C)CC2)CC1=O`, for which the Ki on ORL1 receptor (read-out: ORL1 Ki) turned out to be 8.6 nM; at human μ opiate receptor (read-out: MOP Ki), 1.4 nM. The “ORL1 % Inhibition @ 1 μM” value at ORL1 receptor is 95%. Moreover, the “MOP % Inhibition @1 μM” value on human μ opiate receptor is 98%.

In the case of `CN(C)[C@]1(c2ccccc2)CC[C@]2(CC1)CC(=O)N(CCC(C)(C)C(=O)NCCC#N)C2`, the Ki at ORL1 receptor (read-out: ORL1 Ki) came to 118 nM; at human μ opiate receptor (read-out: MOP Ki), 34 nM. The “ORL1 % Inhibition @ 1 μM” value at ORL1 receptor was determined as 67%. For the same compound, the “MOP % Inhibition @1 μM” value on human μ opiate receptor was determined as 95%.

`CN(C)[C@]1(c2ccccc2)CC[C@]2(CC1)CC(=O)N(CCCNC(=O)c1ccccn1)C2`: the values for the Ki at ORL1 receptor (read-out: ORL1 Ki) and on human μ opiate receptor (read-out: MOP Ki) were 92.5 nM and 24 nM, respectively. Also, the “ORL1 % Inhibition @ 1 μM” value on ORL1 receptor stood at 67%. The “MOP % Inhibition @1 μM” value at human μ opiate receptor was 98%.

As to `CN(C)C1(CC2CCCCC2)CCC2(CCN(Cc3ccccc3)C2)CC1` (centres unmarked), the Ki came to 99 nM at ORL1 receptor (setting [1]) and 1.9 nM on human μ opiate receptor (setting [2]). Besides, the “% inhibition (ORL1) [1 μM]” value on ORL1 receptor was 69.5%. At human μ opiate receptor, the “% inhibition (μ) [1 μM]” value was found to be 101.5%.

Turning to `CN(C)C1(c2ccccc2)CCC2(CC1)CC(=O)N(CCC1(C(N)=O)CCS(=O)(=O)CC1)C2` (centres unmarked), the Ki at ORL1 receptor (read-out: ORL1 Ki) is 180 nM; on human μ opiate receptor (read-out: MOP Ki) it was 30 nM. Moreover, the “ORL1 % Inhibition @ 1 μM” value at ORL1 receptor was 43%. On human μ opiate receptor, the “MOP % Inhibition @1 μM” value was 93%.

Regarding `CN(C)[C@]1(c2ccccc2)CC[C@]2(CC1)CC(=O)N(CC1(C(N)=O)CCC1)C2`, the Ki at ORL1 receptor (read-out: ORL1 Ki) and on human μ opiate receptor (read-out: MOP Ki) was 14.5 nM in each case. On ORL1 receptor, the “ORL1 % Inhibition @ 1 μM” value is on record as 91%. Besides, at human μ opiate receptor, the “MOP % Inhibition @1 μM” value is recorded as 94%.

Take `CN(C)[C@]1(c2ccccc2)CC[C@]2(CC1)CC(=O)N(CCCNC(=O)c1cccnc1)C2`: the Ki on ORL1 receptor (read-out: ORL1 Ki) is 126 nM; at human μ opiate receptor (read-out: MOP Ki), 65.7 nM. The “ORL1 % Inhibition @ 1 μM” value on ORL1 receptor is on record as 57%. Also, the “MOP % Inhibition @1 μM” value on human μ opiate receptor is 93%.

On to `CN(C)C1(c2cccs2)CCC2(CCN(CC(=O)N3CCC3)C2)CC1` (centres unmarked), for which the Ki came out at 24.5 nM at ORL1 receptor (setting [1]) and 2.55 nM on human μ opiate receptor (setting [2]). For the same compound, the “% inhibition (ORL1) [1 μM]” value at ORL1 receptor amounted to 78.5%. The “% inhibition (μ) [1 μM]” value on human μ opiate receptor was determined as 98%.

Regarding “Cis-3-(8-Dimethylamino-3-oxo-8-pyridin-2-yl-2-azaspiro[4.5]decan-2-yl)-2,2-dimethyl-propionamide 2,2,2-trifluoro acetate”, the Ki amounted to 560 nM at ORL1 receptor (read-out: ORL1 Ki) and 645 nM on human μ opiate receptor (read-out: MOP Ki). In addition, the “ORL1 % Inhibition @ 1 μM” value at ORL1 receptor was 35%. The “MOP % Inhibition @1 μM” value on human μ opiate receptor came to 53%.

As to `Cc1cnoc1C(=O)NCCCN1C[C@]2(CC[C@@](c3ccccc3)(N(C)C)CC2)CC1=O`, the Ki at ORL1 receptor (read-out: ORL1 Ki) stood at 180 nM; at human μ opiate receptor (read-out: MOP Ki), 76 nM.

For `COCCNC(=O)CCN1C[C@]2(CC[C@@](c3ccccc3)(N(C)C)CC2)CC1=O`, the Ki amounted to 220 nM on ORL1 receptor (read-out: ORL1 Ki) and 36.5 nM on human μ opiate receptor (read-out: MOP Ki). The “ORL1 % Inhibition @ 1 μM” value at ORL1 receptor worked out at 56%. At human μ opiate receptor, the “MOP % Inhibition @1 μM” value is 90%.

Take `CN(C)[C@]1(c2ccccc2)CC[C@]2(CC1)CC(=O)N(CC(C)(C)C(=O)NCCO)C2`: the values for the Ki at ORL1 receptor (read-out: ORL1 Ki) and on human μ opiate receptor (read-out: MOP Ki) were 150 nM and 200 nM, respectively. Moreover, the “ORL1 % Inhibition @ 1 μM” value at ORL1 receptor worked out at 55%. The “MOP % Inhibition @1 μM” value at human μ opiate receptor is listed as 78%.

These data come from patent US10214520B2, “Substituted azaspiro(4.5)decane derivatives” (priority 2014, dated 2019).
